Assay results: patent US11214803B2, “Modulators of YAP1 expression” (Ionis Pharmaceuticals, Inc., priority 2019, dated 2022)

System: SNU449 xenograft tumor
Test: Tumor volume in SNU449 xenograft tumor model, alone and in combination with sorafenib (second Example 30)
Assay type: in vivo, human
Settings: oligonucleotide 50 mg/kg, sorafenib 30 mg/kg orally
Procedure: Modified oligonucleotides described in the studies above were tested in a hepatocellular carcinoma SNU449 xenograft tumor model. In addition to testing the modified oligonucleotide by itself, combination therapy with sorafenib was also tested. A control oligonucleotide 792169, described herein above, was also tested.
Five million SNU449 cells in 30% matrigel were implanted subcutaneously into the fatpads of female NOD.Cg-Prkdcscid II2rgtmlWjl/SzJ mice (from Jackson Laboratory) at 4-6 weeks of age. 43 days post implantation (when tumors had reached approximately 100 mm^3 in size), groups of eight mice each were administered with 50 mg/kg modified oligonucleotide daily for 10 days (loading dose), following which they were administered with 50 mg/kg modified oligonucleotide four times a week for one week, following which they were dosed with 50 mg/kg modified oligonucleotide thrice weekly until the end of the study. Another group of 8 animals was treated with 30 mg/kg of sorafenib orally 7 times a week until end of study. […]
Tumor volumes were also measured at the indicated days in the table below.

CNC(=O)c1cc(Oc2ccc(NC(=O)Nc3ccc(Cl)c(C(F)(F)F)c3)cc2)ccn1 [sorafenib]
Average Tumor Volume (day 60 post tumor implantation): 234 mm^3
Average Tumor Volume (day 64 post tumor implantation): 217 mm^3
